# Results from PubChem BioAssay AID485297 (National Center for Advancing Translational Sciences (NCATS), 2010).
# Out of some 320,000 compounds screened, about 9,100 (2.8%) were called active. Listed are the inconclusive results; actives and inactives stand elsewhere. The call rests on the fitted dose curve; in most records, active means well fitted activation curve with a large enough effect; inconclusive means small, poorly fitted or top-dose-only effect; inactive means no such curve, though single readings can be large or run the other way.
# Assay: qHTS Assay for Rab9 Promoter Activators; further: nearly all actives have a fitted effect of over 60% in size
# Conditions: Huh7 Rab9 promoter-luciferase reporter, luminescence, 24 h
# Potency means the concentration at half of the fitted maximal effect.
row,Structure (SMILES),Potency
1,CCOc1ccc(C2=NCC(CBr)S2)cc1 (configuration not stated),inconclusive: 2.82 µM
2,CCOC(=O)c1ccc(NC(=O)C(C)(CCl)SC)cc1 (configuration not stated),inconclusive: 3.98 µM
